The values that follow come from patent US7910548B2, “Methods for treating obesity” (Amylin Pharmaceuticals, Inc., priority 1997, dated 2011).

A short description of the experiment: Measurement of body weight in insulin-using Type II diabetes patients, 4-week study. Type of experiment: in vivo, human. The following applies: for Body Weight: Change at Week 4, Mean: 4 weeks, change from baseline, with continued insulin. Here is the method: Study participants were males and females 25 to 78 years of age with a history of Type II diabetes mellitus requiring treatment with insulin for at least 6 months prior to the pre-screening visit. […] The study employed methods described in Thompson et al., Diabetes 46:632-636 (1997). Following a placebo lead-in period, patients were randomized to receive placebo or one of three dose regimens of ^25,28,29Pro-h-amylin (pramlintide) for 4 weeks: 30 μg QID (before breakfast, lunch, dinner and evening snack), 60 μg TID (before breakfast, lunch and dinner) or 60 μg QID (before breakfast, lunch, dinner and evening snack). Throughout the study drug period, patients self-administered four injections of study drug daily, within 15 minutes of each meal and the evening snack. During the double-blind period, patients randomized to pramlintide 60 μg TID administered placebo before the evening snack. Both pramlintide and placebo were administered as separate injections into the subcutaneous tissue of the anterior abdominal wall; the specific site was alternated after each injection. Patients were instructed to remain on their usual diet, insulin and exercise regimens throughout the study, unless otherwise instructed by the investigator, and to abstain from alcoholic beverages prior to all clinic visits.

For `CC[C@H](C)[C@H](NC(=O)[C@@H]1CCCN1C(=O)CNC(=O)[C@H](Cc1ccccc1)NC(=O)[C@H](CC(N)=O)NC(=O)[C@H](CC(N)=O)NC(=O)[C@H](CO)NC(=O)[C@H](CO)NC(=O)[C@H](Cc1c[nH]cn1)NC(=O)[C@@H](NC(=O)[C@H](CC(C)C)NC(=O)[C@H](Cc1ccccc1)NC(=O)[C@H](CC(N)=O)NC(=O)[C@H](C)NC(=O)[C@H](CC(C)C)NC(=O)[C@H](CCCNC(=N)N)NC(=O)[C@H](CCC(N)=O)NC(=O)[C@@H](NC(=O)[C@H](C)NC(=O)[C@@H]1CSSC[C@H](NC(=O)[C@@H](N)CCCCN)C(=O)N[C@@H](CC(N)=O)C(=O)N[C@@H]([C@@H](C)O)C(=O)N[C@@H](C)C(=O)N[C@@H]([C@@H](C)O)C(=O)N1)[C@@H](C)O)C(C)C)C(=O)N[C@@H](CC(C)C)C(=O)N1CCC[C@H]1C(=O)N1CCC[C@H]1C(=O)N[C@H](C(=O)N[C@@H](CC(N)=O)C(=O)N[C@H](C(=O)NCC(=O)N[C@@H](CO)C(=O)N[C@@H](CC(N)=O)C(=O)N[C@H](C(=O)N[C@@H](Cc1ccc(O)cc1)C(N)=O)[C@@H](C)O)C(C)C)[C@@H](C)O` [Pramlintide, ^25,28,29Pro-h-amylin], the “Body Weight: Change at Week 4, Mean” value was -0.36 kg (30 μg QID subcutaneous), -0.72 kg (60 μg QID subcutaneous) and -0.89 kg (60 μg TID subcutaneous). For the same compound, where the note is “insulin-using Type 2 diabetics, statistically significant within 60 μg TID and 60 μg QID groups”, the “Effect on body weight (in words)” value was “decrease in body weight”.
